Assay results published in patent publication US20260382772A1, “KETO-AMIDE-BASED FIBROBLAST ACTIVATION PROTEIN-TARGETED LIGAND LINKED TO AN IMAGING OR THERAPEUTIC AGENT, COMPOSITIONS, AND METHODS OF USE” (published 2026).

System: 4T1 tumor bearing mice
Assay: Biodistribution of ^177Lu-FAP8-PEG3-IP-DOTA in 4T1 tumor bearing mice
Text: Balb/c mice were inoculated on their shoulders with 1×10^5 cells of 4T1 cells, whereas nu/nu mice were inoculated on their shoulders with 5×10^6 cells of HT29 (a human colorectal adenocarcinoma cell line), KB (tumor cell line HeLa), MDA-MB-231 (a human breast cancer cell line), or HEK-FAP cells.
For the first study, two different tumor-bearing mice (4T1 and HEK-hFAP) were intravenously injected with [^111In] In-FAP8-PEG3-IP-DOTA (In-Conjugate 24′) (0.74 MBq/mouse, 1-10 nmol/mouse) or [^177Lu] Lu-FAP8-PEG3-IP-DOTA (Lu-Conjugate 24′) (7.4 MBq/mouse, 0.3 nmol-5 nmol/mouse).
At indicated time points (1 hour, 4 hours, 24 hours, 72 hours, 120 hours, and 168 hours post-injection), mice were assessed and/or euthanized by CO2 asphyxiation and organs of interest were harvested, excess blood was rinsed, dried, weighed, and then analyzed by gamma counter, and the results were decay corrected and presented as the percentage of the injected dose per gram of tissue (% ID/g)±standard deviation (SD).
Dose escalation analyses of [^177Lu] Lu-FAP8-PEG3-IP-DOTA (Lu-Conjugate 24′) in 4T1 tumor-bearing mice was performed (n=3) with 0.3 nmol/mouse (FIG. 45A) or 1.0 nmol/mouse (FIG. 45B) of Lu-Conjugate 24′ provided with constant radioactivity (0.74 MBq/mouse) and measured at different times (1 hour, 4 hours, 24 hours, 72 hours, 120 hours, and 168 hours post-injection).

COc1ccc(CNC(=O)C(=O)[C@@H]2CC(F)(F)CN2C(=O)CNC(=O)c2ccnc3ccc(OCC(=O)NCCOCCOCCOCCNC(=O)[C@H](CCCCNC(=O)CCCc4ccc(I)cc4)NC(=O)CN4CCN(CC(=O)O)CCN(CC(=O)O)CCN(CC(=O)O)CC4)cc23)cc1OC.[Lu+3]
Bone marrow uptake (1.0 nmol/mouse, 72 h): 0.13 ± 0.22 % ID/g | Heart uptake (1.0 nmol/mouse, 72 h): 1.26 ± 0.58 % ID/g | Intestine uptake (1.0 nmol/mouse, 72 h): 0.79 ± 0.19 % ID/g | Kidneys uptake (1.0 nmol/mouse, 72 h): 1.19 ± 0.02 % ID/g | Liver uptake (1.0 nmol/mouse, 72 h): 4.90 ± 1.61 % ID/g | Lungs uptake (1.0 nmol/mouse, 72 h): 0.99 ± 0.50 % ID/g | Spleen uptake (1.0 nmol/mouse, 72 h): 1.98 ± 0.19 % ID/g | Stomach uptake (1.0 nmol/mouse, 72 h): 0.86 ± 0.35 % ID/g | Tumor uptake (1.0 nmol/mouse, 72 h): 6.99 ± 1.70 % ID/g | Tumor/Blood (1.0 nmol/mouse, 72 h): 4.74 ± 1.07 | Tumor/Bone marrow (1.0 nmol/mouse, 72 h): 16.96 ± 0.1 | Tumor/Kidneys (1.0 nmol/mouse, 72 h): 5.88 ± 1.22 | Blood uptake (1.0 nmol/mouse, 120 h): 0.88 ± 0.13 % ID/g | Bone marrow uptake (1.0 nmol/mouse, 120 h): 1.02 ± 0.67 % ID/g | Heart uptake (1.0 nmol/mouse, 120 h): 0.56 ± 0.18 % ID/g | Intestine uptake (1.0 nmol/mouse, 120 h): 0.42 ± 0.18 % ID/g | Kidneys uptake (1.0 nmol/mouse, 120 h): 1.36 ± 0.67 % ID/g | Liver uptake (1.0 nmol/mouse, 120 h): 6.36 ± 1.2 % ID/g | Lungs uptake (1.0 nmol/mouse, 120 h): 1.29 ± 0.54 % ID/g | Spleen uptake (1.0 nmol/mouse, 120 h): 2.97 ± 0.59 % ID/g | Stomach uptake (1.0 nmol/mouse, 120 h): 0.40 ± 0.12 % ID/g | Tumor uptake (1.0 nmol/mouse, 120 h): 4.68 ± 0.85 % ID/g | Tumor/Blood (1.0 nmol/mouse, 120 h): 5.29 ± 0.27 | Tumor/Bone marrow (1.0 nmol/mouse, 120 h): 5.80 ± 2.27 | Tumor/Kidneys (1.0 nmol/mouse, 120 h): 3.93 ± 1.23 | Blood uptake (1.0 nmol/mouse, 168 h): 0.5 ± 0.1 % ID/g | Bone marrow uptake (1.0 nmol/mouse, 168 h): 0.33 ± 0.30 % ID/g | Heart uptake (1.0 nmol/mouse, 168 h): 1.16 ± 0.15 % ID/g | Intestine uptake (1.0 nmol/mouse, 168 h): 0.46 ± 0.15 % ID/g | Kidneys uptake (1.0 nmol/mouse, 168 h): 1.56 ± 0.73 % ID/g | Liver uptake (1.0 nmol/mouse, 168 h): 2.43 ± 0.40 % ID/g | Lungs uptake (1.0 nmol/mouse, 168 h): 0.7 ± 0.51 % ID/g | Spleen uptake (1.0 nmol/mouse, 168 h): 1.9 ± 0.45 % ID/g | Stomach uptake (1.0 nmol/mouse, 168 h): 0.33 ± 0.05 % ID/g | Tumor uptake (1.0 nmol/mouse, 168 h): 5 ± 1.57 % ID/g | Tumor/Blood (1.0 nmol/mouse, 168 h): 11.22 ± 4.12 | Tumor/Bone marrow (1.0 nmol/mouse, 168 h): 11.38 ± 2.95 | Tumor/Kidneys (1.0 nmol/mouse, 168 h): 3.60 ± 1.29 | Blood uptake (5.0 nmol/mouse, 1 h): 28.96 ± 12.08 % ID/g | Bone marrow uptake (5.0 nmol/mouse, 1 h): 1.15 ± 0.38 % ID/g | Heart uptake (5.0 nmol/mouse, 1 h): 2.46 ± 1.42 % ID/g | Intestine uptake (5.0 nmol/mouse, 1 h): 1.38 ± 0.30 % ID/g | Kidneys uptake (5.0 nmol/mouse, 1 h): 4.83 ± 2.4 % ID/g | Liver uptake (5.0 nmol/mouse, 1 h): 5.32 ± 0.90 % ID/g | Lungs uptake (5.0 nmol/mouse, 1 h): 3.90 ± 0.62 % ID/g | Spleen uptake (5.0 nmol/mouse, 1 h): 2.27 ± 1.76 % ID/g | Stomach uptake (5.0 nmol/mouse, 1 h): 1.35 ± 0.32 % ID/g | Tumor uptake (5.0 nmol/mouse, 1 h): 9.6 ± 4.95 % ID/g | Tumor/Blood (5.0 nmol/mouse, 1 h): 0.33 ± 0.08 | Tumor/Bone marrow (5.0 nmol/mouse, 1 h): 8.54 ± 318 | Tumor/Kidneys (5.0 nmol/mouse, 1 h): 2.09 ± 0.92 | Blood uptake (5.0 nmol/mouse, 4 h): 4.65 ± 1.32 % ID/g | Bone marrow uptake (5.0 nmol/mouse, 4 h): 1.50 ± 0.717 % ID/g | Heart uptake (5.0 nmol/mouse, 4 h): 1.79 ± 0.79 % ID/g | Intestine uptake (5.0 nmol/mouse, 4 h): 1.67 ± 0.42 % ID/g | Kidneys uptake (5.0 nmol/mouse, 4 h): 4.94 ± 2.88 % ID/g | Liver uptake (5.0 nmol/mouse, 4 h): 3.09 ± 0.66 % ID/g | Lungs uptake (5.0 nmol/mouse, 4 h): 2.66 ± 0.71 % ID/g | Spleen uptake (5.0 nmol/mouse, 4 h): 1.37 ± 1.15 % ID/g | Stomach uptake (5.0 nmol/mouse, 4 h): 1.97 ± 0.31 % ID/g | Tumor uptake (5.0 nmol/mouse, 4 h): 10.97 ± 1.43 % ID/g | Tumor/Blood (5.0 nmol/mouse, 4 h): 2.54 ± 0.76 | Tumor/Bone marrow (5.0 nmol/mouse, 4 h): 8.24 ± 2.53 | Tumor/Kidneys (5.0 nmol/mouse, 4 h): 2.67 ± 1.00 | Blood uptake (5.0 nmol/mouse, 24 h): 6.12 ± 4.78 % ID/g | Bone marrow uptake (5.0 nmol/mouse, 24 h): 0.46 ± 0.34 % ID/g | Heart uptake (5.0 nmol/mouse, 24 h): 0.72 ± 0.68 % ID/g | Intestine uptake (5.0 nmol/mouse, 24 h): 1.30 ± 0.72 % ID/g | Kidneys uptake (5.0 nmol/mouse, 24 h): 1.53 ± 1.17 % ID/g | Liver uptake (5.0 nmol/mouse, 24 h): 2.99 ± 1.46 % ID/g | Lungs uptake (5.0 nmol/mouse, 24 h): 2.07 ± 1.38 % ID/g | Spleen uptake (5.0 nmol/mouse, 24 h): 1.13 ± 0.456 % ID/g | Stomach uptake (5.0 nmol/mouse, 24 h): 1.17 ± 1.13 % ID/g | Tumor uptake (5.0 nmol/mouse, 24 h): 6.13 ± 2.89 % ID/g | Tumor/Blood (5.0 nmol/mouse, 24 h): 2.16 ± 1.97 | Tumor/Bone marrow (5.0 nmol/mouse, 24 h): 21.03 ± 11.54 | Tumor/Kidneys (5.0 nmol/mouse, 24 h): 5.82 ± 2.82 | Blood uptake (5.0 nmol/mouse, 72 h): 1.1775 ± 0.38 % ID/g | Bone marrow uptake (5.0 nmol/mouse, 72 h): 0.44 ± 0.31 % ID/g | Heart uptake (5.0 nmol/mouse, 72 h): 0.22 ± 0.08 % ID/g | Intestine uptake (5.0 nmol/mouse, 72 h): 0.62 ± 0.26 % ID/g | Kidneys uptake (5.0 nmol/mouse, 72 h): 1.48 ± 0.57 % ID/g | Liver uptake (5.0 nmol/mouse, 72 h): 2.42 ± 0.63 % ID/g | Lungs uptake (5.0 nmol/mouse, 72 h): 0.67 ± 0.50 % ID/g | Spleen uptake (5.0 nmol/mouse, 72 h): 1.54 ± 0.74 % ID/g | Stomach uptake (5.0 nmol/mouse, 72 h): 0.45 ± 0.17 % ID/g | Tumor uptake (5.0 nmol/mouse, 72 h): 6.36 ± 0.96 % ID/g | Tumor/Blood (5.0 nmol/mouse, 72 h): 6.31 ± 2.73 | Tumor/Bone marrow (5.0 nmol/mouse, 72 h): 20.78 ± 9.88 | Tumor/Kidneys (5.0 nmol/mouse, 72 h): 5.02 ± 1.79 | Blood uptake (5.0 nmol/mouse, 120 h): 0.73 ± 0.25 % ID/g | Bone marrow uptake (5.0 nmol/mouse, 120 h): 0.66 ± 0.74 % ID/g | Heart uptake (5.0 nmol/mouse, 120 h): 0.67 ± 0.40 % ID/g | Intestine uptake (5.0 nmol/mouse, 120 h): 0.69 ± 0.20 % ID/g | Kidneys uptake (5.0 nmol/mouse, 120 h): 0.40 ± 0.09 % ID/g | Liver uptake (5.0 nmol/mouse, 120 h): 1.74 ± 0.68 % ID/g | Lungs uptake (5.0 nmol/mouse, 120 h): 0.36 ± 0.17 % ID/g | Spleen uptake (5.0 nmol/mouse, 120 h): 0.84 ± 0.78 % ID/g | Stomach uptake (5.0 nmol/mouse, 120 h): 0.45 ± 0.26 % ID/g | Tumor uptake (5.0 nmol/mouse, 120 h): 3.71 ± 1.59 % ID/g | Tumor/Blood (5.0 nmol/mouse, 120 h): 4.39 ± 1.39 | Tumor/Bone marrow (5.0 nmol/mouse, 120 h): 11.04 ± 9.17 | Tumor/Kidneys (5.0 nmol/mouse, 120 h): 7.54 ± 3.45 | Blood uptake (5.0 nmol/mouse, 168 h): 0.34 ± 0.27 % ID/g | Bone marrow uptake (5.0 nmol/mouse, 168 h): 0.63 ± 0.75 % ID/g | Heart uptake (5.0 nmol/mouse, 168 h): 0.48 ± 0.31 % ID/g | Intestine uptake (5.0 nmol/mouse, 168 h): 0.26 ± 0.15 % ID/g | Kidneys uptake (5.0 nmol/mouse, 168 h): 0.302 ± 0.39 % ID/g | Liver uptake (5.0 nmol/mouse, 168 h): 1.42 ± 1.00 % ID/g | Lungs uptake (5.0 nmol/mouse, 168 h): 0.92 ± 0.26 % ID/g | Spleen uptake (5.0 nmol/mouse, 168 h): 0.74 ± 0.29 % ID/g | Stomach uptake (5.0 nmol/mouse, 168 h): 0.25 ± 0.13 % ID/g | Tumor uptake (5.0 nmol/mouse, 168 h): 1.94 ± 0.27 % ID/g | Tumor/Blood (5.0 nmol/mouse, 168 h): 7.08 ± 4.78 | Tumor/Bone marrow (5.0 nmol/mouse, 168 h): 3.07 ± 1.35 | Tumor/Kidneys (5.0 nmol/mouse, 168 h): 5.95 ± 2.92
